From article PMC12802937 (Nucleic Acids Research, 2026) come the findings set out here.

One may read the Kd as the concentration at which binding is half-saturated. In general, koff refers to the rate constant with which the complex falls apart. In general, kon refers to a measure of how fast the partners come together.

Common to all, as to assay: SPR; Lge1-CT immobilised on a CM5 chip, Bre1-LR flown over; Biacore 8K, 25°C, 20 mM HEPES (pH 7.5), 200 mM sodium chloride, 0.02% Tween 20
What all share (details): both partners purified
On the technique in general: Surface plasmon resonance follows binding to a sensor surface in real time, without labels.

The target in one experiment is T1, Bre1-LR K352E/K528E (budding yeast, UniProt Q07457 227-700, K352E | K528E).
T1 construct: source: E. coli BL21 Rosetta (DE3), purified (Ni-NTA, heparin, gel filtration)
T1 sequence (looked up): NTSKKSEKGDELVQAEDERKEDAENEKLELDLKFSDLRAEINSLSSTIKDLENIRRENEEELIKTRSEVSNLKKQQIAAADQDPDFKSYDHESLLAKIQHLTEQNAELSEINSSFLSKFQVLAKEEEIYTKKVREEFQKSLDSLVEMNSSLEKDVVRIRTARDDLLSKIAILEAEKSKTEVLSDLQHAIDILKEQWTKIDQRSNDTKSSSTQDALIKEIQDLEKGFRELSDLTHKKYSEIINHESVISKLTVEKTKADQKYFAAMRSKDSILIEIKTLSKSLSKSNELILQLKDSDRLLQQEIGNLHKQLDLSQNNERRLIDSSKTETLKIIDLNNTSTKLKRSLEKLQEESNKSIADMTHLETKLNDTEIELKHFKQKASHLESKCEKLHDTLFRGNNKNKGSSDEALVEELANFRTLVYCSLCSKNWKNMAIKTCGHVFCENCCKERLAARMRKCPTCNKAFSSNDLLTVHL

The target in experiment [1] is T2, Bre1-LR (Bre1 residues 227–700, LBD and RING domains), 6× histidine tag (budding yeast, UniProt Q07457 227-700).
T2 construct: two Bre1 polypeptides form the dimeric coiled-coils of the LBD in the crystal structure; also called WT; source: E. coli BL21 Rosetta (DE3), purified (Ni-NTA, heparin, gel filtration)
T2 sequence (looked up): T1 sequence (looked up) with E126K, E302K

Another experiment deals with T3, Bre1-LR K506E/K510E (budding yeast, UniProt Q07457 227-700, K506E | K510E).
T3 construct: source: E. coli BL21 Rosetta (DE3), purified (Ni-NTA, heparin, gel filtration)
T3 sequence (looked up): T1 sequence (looked up) with E126K, K280E, K284E, E302K

For experiment [2], the target named is T4, Bre1-LR R360E/D368K/K519E (budding yeast, UniProt Q07457 227-700, R360E | D368K | K519E).
T4 construct: source: E. coli BL21 Rosetta (DE3), purified (Ni-NTA, heparin, gel filtration)
T4 sequence (looked up): T1 sequence (looked up) with E126K, R134E, D142K, K293E, E302K

Substitutions are numbered along the chain they refer to. Names and notes keep the numbering of the source.

B1: Lge1-CT D287K (domain or fragment, budding yeast, UniProt Q02796 261-332, looked up)
chain: KNVKKTNNTESECEKAREVFKESDSIKSALEELNLKINSNELELRLLNNQCDKHALNIQLTQEKLDSLLLMQ
notes: Lge1, budding yeast, residues 261-332; source: E. coli BL21 Rosetta (DE3): cleared cell extract on chitin resin (pull-down); purified (chitin, heparin, gel filtration) for ITC and SPR
As for B1, in the experiment with Bre1-LR K352E/K528E, the Kd was 346 nM, the koff is 0.00574 s⁻¹ and the kon was found to be 16600 M⁻¹ s⁻¹.

B2: Lge1-CT E303K (domain or fragment, budding yeast, UniProt Q02796 261-332, looked up)
chain: B1 chain with K27D, E43K
notes: as for B1
In experiment [1], B2 registered a koff of 0.00241 s⁻¹ and an on-rate (kon) of 37800 M⁻¹ s⁻¹. For the same molecule, in the experiment with Bre1-LR K506E/K510E, binding was put at a Kd of 81.7 nM, the koff came to 0.00236 s⁻¹ and the kon is 28900 M⁻¹ s⁻¹.

B3: Lge1-CT E301K/R305E (domain or fragment, budding yeast, UniProt Q02796 261-332, looked up)
chain: B1 chain with K27D, E41K, R45E
notes: as for B1
In experiment [2], B3 showed a Kd of 579 nM, a koff of 0.00543 s⁻¹ and a kon of 9370 M⁻¹ s⁻¹. For the same molecule, in experiment [1], the koff is 0.00431 s⁻¹ and the kon came to 52800 M⁻¹ s⁻¹.
